Earlier results as cited in patent US20090221538A1, “METHODS OF TREATING MULTIPLE SCLEROSIS BY ADMINISTERING PULSE DOSE CALCITRIOL” (priority 2008, published 2009).

Test system: MS
Conditions: cited from earlier work

B1: interferon-beta-1: FDA-approved, self-injectable MS drug (protein, UniProt P01574 22-187, looked up)
Interferon beta: MSYNLLGFLQRSSNFQCQKLLWQLNGRLEYCLKDRMNFDIPEEIKQLQQFQKEDAALTIYEMLQNIFAIFRQDSSSTGWNETIVENLLANVYHQINHLKTVLEEKLEKEDFTRGKLMSSLHLKRYYGRILHYLKAKEYSHCAWTIVRVEILRNFYFINRLTGYLRN
disability progression (RRMS, PPMS or SPMS patients): did not slow disability progression | reduction of the relapse rate (some relapsing-remitting MS (RRMS)): ~35%
